{"sequences": {"note": "By UniProt entry, the sequences of proteins in these tests, tags left out.", "UniProt P11309, whole entry": "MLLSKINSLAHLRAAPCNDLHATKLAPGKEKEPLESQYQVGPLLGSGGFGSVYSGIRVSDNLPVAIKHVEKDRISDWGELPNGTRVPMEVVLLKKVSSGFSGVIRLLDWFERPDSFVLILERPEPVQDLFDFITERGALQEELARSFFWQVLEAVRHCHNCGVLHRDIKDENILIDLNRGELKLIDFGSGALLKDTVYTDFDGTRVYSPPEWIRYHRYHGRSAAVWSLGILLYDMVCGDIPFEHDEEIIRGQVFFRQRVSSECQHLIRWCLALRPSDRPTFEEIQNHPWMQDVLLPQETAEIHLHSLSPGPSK"}, "source": "ChEMBL document CHEMBL3808325", "about": "“Discovery and Optimization of Macrocyclic Quinoxaline-pyrrolo-dihydropiperidinones as Potent Pim-1/2 Kinase Inhibitors” (ACS Med Chem Lett, 2016)", "target": "Serine/threonine-protein kinase pim-1 (Homo sapiens, UniProt P11309)", "test": "Inhibition of human full-length Pim1 expressed in Escherichia coli assessed as phosphorylation of biotinylated BAD peptide at Ser-112 preincubated for 30 mins followed by substrate addition measured after 1 hr by HTRF assay", "outline": "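Cell-free kinase assay using recombinant Pim-1 or Pim-2. Read-out is phosphorylation of a short BAD peptide sequence spanning Ser-112.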", "data": [{"smiles": "CCCNc1nc2c(-c3cc4c([nH]3)CCNC4=O)cccc2nc1C", "values": [{"measurement": "IC50", "result": 5, "unit": "nM"}]}]}
